Sampled rows, rich in hits. Any-hit rate of the full collection: about 2.8%.
esBAF inh = SWI/SNF esBAF complex inhibition; mouse ES cells, Bmi1-luciferase knock-in reporter, 24 h; 100% = twice the neutral-well signal; reporter increase, % at 12.5 µM; hit rate 2% among 350,000; in the data active = activation above about 40%; inconclusive = no clear call, values can overlap the other calls;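 note: a rise in the Bmi1 reporter signal indicates esBAF inhibition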
Yeast UUG start = modulators of yeast start codon fidelity, primary screen, whole organism, S. cerevisiae, single point, plate reader; S. cerevisiae UUG-firefly luciferase reporter, luminescence/redox ratio; activity score, % at 18.7 µM; 0.13% of 350,000 active; AID 602363, 2012;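 active = replicate mean at a twofold rise or more, about +100% in these data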;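 also: firefly luciferase made from a UUG start codon reports start codon fidelity; reporter light over untreated wells divided by growth signal over untreated wells; some hits fall short of that in this replicate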
Statin myotox sup = suppression of simvastatin myotoxicity | C2C12 myotubes + simvastatin, ATP luminescence, 48 h; scaled: DMSO 0, geranylgeraniol control 100 | rescue of ATP level, % at 7.49 µM | hit rate 0.78% among 330,000 | AID 602340;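 active = mean ATP rescue above about 67%, or every replicate alone reaching that limit, limit read from the data, passing the limit was not always enough; inconclusive = no clear call, values can overlap the other calls; inactive = mean under the limit and some replicate under it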;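 note: myotubes were challenged with 10 µM simvastatin during compound exposure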
E-sel inducer = induces E-selectin expression in human endothelial cells; activation, % at 7.58 µM; HUVEC E-selectin immunofluorescence imaging; normalized: neutral wells 0, TNF-alpha wells 100; P16581; hit rate 0.37% among 260,000;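 active = mean E-selectin-positive cell signal at least 10% of the positive control, reached in at least 60% of replicates, without over 20% cell loss; inconclusive = no rule given, readout overlaps actives, possibly toxicity-flagged; inactive = the rest, including those meeting only one limit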
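assay system = HUVEC, human umbilical vein endothelial cells | input = 3,000 HUVEC seeded per well | medium = EGM-2 growth medium on 0.1% gelatin-coated wells | dosing = one compound dose added by pin transfer | signal = immunofluorescence imaging | read-out basis = % PE-positive cells | control set = TNF-alpha, DMSO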
PglD inh = inhibitors of Campylobacter jejuni PglD acetyltransferase. purified PglD enzyme, DTNB colorimetric CoA detection. inhibition, % at 12.5 µM. hit rate 0.098% among 360,000. AID 602405; in the data active = inhibition above about 16%, passing the limit was not always enough; inconclusive = no clear call, values can overlap the other calls
PGC1a acetyl inh = lowers PGC1a acetylation signal in U2OS cells; inhibition, % at 15.6 µM; AlphaScreen anti-acetyl-lysine; with virally co-expressed GCN5 acetyltransferase; hit rate 0.17% among 350,000;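 active = every replicate shows inhibition of at least 40%; inconclusive = mean inhibition at least 40% but some replicate below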
Of the large screens only hits and unclear results are named; the others gave an inactive call.

Cn1cc(/C=C(\C#N)C(=O)Nc2ccccc2O)c2ccccc21	esBAF inh 64 (no result: E-sel inducer)
CCOC(=O)Cn1cc(/C=C(/C#N)C(=O)NC(C)C)c2ccccc21	E-sel inducer 83, PGC1a acetyl inh inconclusive
CC(C)OC(=O)/C(C#N)=C/c1cn(C)c2ccccc12	none (no result: esBAF inh, Yeast UUG start, Statin myotox sup, E-sel inducer, PglD inh)
CCOC(=O)Cn1cc(/C=C(\C#N)C(=O)N2CCOCC2)c2ccccc21	none (no result: esBAF inh, Yeast UUG start, Statin myotox sup, PglD inh, PGC1a acetyl inh)
CCNC(=O)C[C@H]1CC[C@@H]2[C@@H](COc3ccc(NC(=O)Nc4ccc(Cl)cc4)cc3C(=O)N2C)O1	none
Cn1c(SCc2ccc(C#N)cc2Cl)nc2ccccc21	esBAF inh 87 (no result: E-sel inducer)
Cc1cccc(N(O)C(=O)Nc2cccc(Cl)c2)c1	esBAF inh 51 (no result: E-sel inducer)
CCN(C(=O)Nc1cccc(Cl)c1)c1ccccc1	none (no result: E-sel inducer)
C[C@@H]1CCCCO[C@H](CN(C)S(=O)(=O)c2ccc(F)cc2)[C@H](C)CN([C@H](C)CO)C(=O)c2cc(NS(C)(=O)=O)ccc2O1	none (no result: esBAF inh, Yeast UUG start, Statin myotox sup, PglD inh, PGC1a acetyl inh)
COCCNC(=O)C[C@H]1C[C@@H]2c3cc(NC(=O)Nc4ccccc4F)ccc3O[C@@H]2[C@@H](CO)O1	none
O=C(c1cn(-c2ccc(Cl)c(Cl)c2)nn1)C1CC1	none (no result: E-sel inducer)
O=C1CCCCC1C(=O)c1cn(-c2ccc(Cl)c(Cl)c2)nn1 (configuration not stated)	esBAF inh 63
O=C1OC2(CCCCC2)OC(=O)C1=CNc1ccc2c(c1)OCO2	esBAF inh 57 (no result: E-sel inducer)
COc1cccc(NC=C2C(=O)OC3(CCCCC3)OC2=O)c1	none (no result: E-sel inducer)
CCc1ccc(C(C(=O)NC2CCCCC2)N(C(=O)c2csnn2)C2CC2)cc1 (configuration not stated)	E-sel inducer 39
Cc1ccc(C(C(=O)NC2CCCCC2)N(C(=O)c2csnn2)C2CC2)cc1 (configuration not stated)	none (no result: PGC1a acetyl inh)
C=CCN(C(=O)c1csnn1)C(C(=O)NC1CCCCC1)c1ccccc1 (configuration not stated)	E-sel inducer 31
O=C(O)c1cnn(-c2nc(-c3ccc(Cl)cc3)cs2)c1C(F)(F)F	esBAF inh 76
COC(=O)c1cnn(-c2nc(-c3ccccc3)cs2)c1N	esBAF inh 65
COc1ccc(S(=O)(=O)N(C)C[C@H]2Oc3ccc(NC(=O)Nc4ccc5c(c4)OCO5)cc3C(=O)N([C@@H](C)CO)C[C@H]2C)cc1	none (no result: Statin myotox sup)
CCOC(=O)c1sc2nc3n(c(=O)c2c1C)CCCCC3	esBAF inh 68 (no result: E-sel inducer)
CC(=O)c1cccc(NC(=O)c2sc3nc4n(c(=O)c3c2C)CCCCC4)c1	none (no result: E-sel inducer)
CSc1cccc(NC(=O)c2sc3nc4n(c(=O)c3c2C)CCC4)c1	esBAF inh 54 (no result: E-sel inducer, PGC1a acetyl inh)
Cc1c(C(=O)Nc2cc(F)ccc2F)sc2nc3n(c(=O)c12)CCCCC3	esBAF inh 71 (no result: E-sel inducer)
Cc1c(C(=O)O)sc2nc3n(c(=O)c12)CCCCC3	none (no result: esBAF inh, Statin myotox sup, E-sel inducer)
CCn1ncc(N2CCOCC2)c(Cl)c1=O	none (no result: PGC1a acetyl inh)
CCn1ncc(N(C)N)c(Cl)c1=O	Statin myotox sup 89 (no result: E-sel inducer)
Cc1ccc(C(=O)c2c(C)oc3c2C(=O)C(=O)c2ccccc2-3)cc1	none (no result: esBAF inh, Yeast UUG start, Statin myotox sup, E-sel inducer, PglD inh)
Cc1ccc(C(=O)c2coc3c2C(=O)C(=O)c2ccccc2-3)cc1	esBAF inh 42 (no result: E-sel inducer)
CN1C(=O)c2cc(NC(=O)Nc3cccc(Cl)c3)ccc2OC[C@H]2O[C@H](CC(=O)NCCc3ccncc3)CC[C@@H]21	none
COc1ccc2c3c(n(C)c2c1)[C@H](CO)N(C(=O)c1ccc(F)cc1)CC31CN(C(=O)c2ccc(F)cc2)C1	none (no result: esBAF inh, Yeast UUG start, Statin myotox sup, PglD inh, PGC1a acetyl inh)
C/C=C/c1ccc([C@H]2[C@@H](CO)N(C(=O)C3CC3)C23CN(C(=O)NC(C)C)C3)cc1	none (no result: esBAF inh, Yeast UUG start, Statin myotox sup, PglD inh)
Fc1ccccc1-c1cc2ccccc2cn1	esBAF inh 61 (no result: PGC1a acetyl inh)
COc1ccc(-c2cc3cc(F)ccc3cn2)cc1	none
COc1cc(OC)cc(-c2cc3cc(F)ccc3cn2)c1	esBAF inh 69
COc1cc2cnc(-c3ccccc3F)cc2cc1OC	none (no result: PGC1a acetyl inh)
COc1ccc(-c2cc3ccc(F)cc3cn2)cc1	none (no result: E-sel inducer)
Fc1ccc2cc(-c3ccccc3F)ncc2c1	esBAF inh 63
Fc1ccc2cnc(-c3ccccc3F)cc2c1	esBAF inh 54
C[C@H](CO)N1C[C@H](C)[C@H](CN(C)Cc2cncnc2)Oc2cc(C#CC3CC3)ccc2S1(=O)=O	none (no result: esBAF inh, Yeast UUG start, PglD inh)
Cc1noc(C)c1S(=O)(=O)N(C)C[C@H]1OCCCC[C@@H](C)Oc2ccc(NS(C)(=O)=O)cc2C(=O)N([C@@H](C)CO)C[C@H]1C	none (no result: Statin myotox sup)
CN(C)C(=O)C[C@H]1C[C@@H]2c3cc(NS(=O)(=O)c4ccccc4)ccc3O[C@@H]2[C@H](CO)O1	none
Cn1c(=O)oc2cc(S(=O)(=O)Nc3ccc4c(c3)OCO4)ccc21	esBAF inh 45 (no result: E-sel inducer)
Cc1ccc(S(=O)(=O)N(C)Cc2ccc(-c3nnco3)cc2)cc1	Statin myotox sup 108 (no result: E-sel inducer)
CCN(CC)S(=O)(=O)c1ccc(-c2nnco2)cc1	none (no result: E-sel inducer)
C[C@H]1CN([C@@H](C)CO)C(=O)c2cc(NC(=O)Nc3cccc4ccccc34)ccc2O[C@H]1CN(C)Cc1ccc(C(=O)Nc2ccccc2N)cc1	Statin myotox sup 202
C[C@H](CO)N1C[C@H](C)[C@@H](CN(C)Cc2ccc(C(=O)Nc3ccccc3N)cc2)Oc2ccc(NC(=O)Nc3ccc(C(F)(F)F)cc3)cc2C1=O	Statin myotox sup 82
C[C@H](CO)N1C[C@H](C)[C@H](CN(C)Cc2ccc(C(=O)Nc3ccccc3N)cc2)Oc2ccc(N(C)C)cc2C1=O	Statin myotox sup 83
C[C@@H]1CN([C@@H](C)CO)C(=O)c2cc(NC(=O)Nc3ccc(C(F)(F)F)cc3)ccc2O[C@@H]1CN(C)Cc1ccc(C(=O)Nc2ccccc2N)cc1	Statin myotox sup 72
Cc1noc(C)c1NC(=O)Nc1cccc2c1O[C@H](CN(C)C(=O)NC1CCCCC1)[C@H](C)CN([C@@H](C)CO)C2=O	none
C[C@@H]1CN([C@H](C)CO)S(=O)(=O)c2ccc(C3=CCCC3)cc2O[C@@H]1CN(C)C(=O)c1ccccc1	none
Cc1cc(C)nc(-n2nc(C)c(Sc3ccc(F)cc3)c2N)n1	esBAF inh 137 (no result: E-sel inducer)
Cc1cc(N/N=C/c2ccc(F)cc2)nc(-n2nc(C)cc2C)n1	none (no result: esBAF inh, Statin myotox sup, E-sel inducer)
COc1ccc(Nc2ncc(C(=O)O)c3ccccc23)cc1	none (no result: E-sel inducer)
COc1ccc(Nc2ncc(C(=O)N3CCN(c4ccc(F)cc4)CC3)c3ccccc23)cc1	Statin myotox sup 157 (no result: E-sel inducer)
CCOc1nc(Nc2ccc(OC)c(Cl)c2)nc(N2CCN(c3ccc(OC)cc3)CC2)n1	none (no result: esBAF inh, Statin myotox sup, E-sel inducer)
CCOc1nc(Nc2ccc(F)cc2)nc(N2CCN(c3ccc(OC)cc3)CC2)n1	Statin myotox sup 110 (no result: E-sel inducer)
O=C(C[C@H]1C[C@H]2c3cc(NC(=O)NC4CCCC4)ccc3O[C@H]2[C@@H](CO)O1)NCc1ccc(Cl)cc1	none
Fc1ccc(CNc2ncnc3c2cnn3-c2ccccc2)cc1	esBAF inh 49 (no result: E-sel inducer)
Clc1ccc(Nc2ncnc3c2cnn3-c2ccccc2)cc1	esBAF inh 85

High-throughput results deposited in PubChem BioAssay by Broad Institute.
